According to publication PMC10133546, “Simultaneous determination of multiple components in rat plasma by UHPLC-sMRM for pharmacokinetic studies after oral administration of Qingjin Yiqi Granules” (Frontiers in Pharmacology, 2023):

Columns and labels:
[1] = Stability of analytes in rat plasma (auto-sampler, freeze-thaw, room temperature, long-term); settings: for Freeze thaw cycles Accuracy (%): three freeze-thaw cycles; for −80°C for 1month Accuracy (%): −80°C 1 month
[2] = Stability of the working solution (4°C for 1 month); type: physicochemical

## O=C(O)[C@H]1O[C@@H](Oc2cc3oc(-c4ccccc4)cc(=O)c3c(O)c2O)[C@H](O)[C@@H](O)[C@@H]1O [baicalin]
[1]; 15.6 ng/mL
  Freeze thaw cycles Accuracy (%): 101.0%

## O=C(/C=C/c1ccc(O)c(O)c1)O[C@@H]1C[C@](O)(C(=O)O)C[C@@H](O)[C@H]1O [chlorogenic acid]
[1]; 50 ng/mL
  Freeze thaw cycles Accuracy (%): 105.0%
[1]; 100 ng/mL
  −80°C for 1month Accuracy (%): 102.0%

## COc1ccc(/C=C/C(=O)O)cc1O [isoferulic acid]
[2]; 500 ng/mL
  Working solution Accuracy (%): 101.0%
[1]; 50 ng/mL, autosampler 24 h
  Autosampler for 24 h Accuracy (%): 97.1%
[1]; 200 ng/mL
  Freeze thaw cycles Accuracy (%): 97.1%
  −80°C for 1month Accuracy (%): 105.0%
[1]; 500 ng/mL, room temperature 24 h
  Room temperature for 24 h Accuracy (%): 97.1%

## C[C@@]12C[C@@]3(O)O[C@@H](O1)[C@]1(COC(=O)c4ccccc4)[C@H]3C[C@@]12O[C@@H]1O[C@H](CO)[C@@H](O)[C@H](O)[C@H]1O [paeoniflorin]
[2]; 50 ng/mL
  Working solution Accuracy (%): 97.6%
[2]; 100 ng/mL
  Working solution Accuracy (%): 98.1%

## O=C(O)c1ccc(O)c(O)c1 [protocatechuic acid]
[1]; 12.5 ng/mL
  Freeze thaw cycles Accuracy (%): 101.0%

## C[C@@H]1O[C@@H](Oc2c(-c3ccc(O)c(O)c3)oc3cc(O)cc(O)c3c2=O)[C@H](O)[C@H](O)[C@H]1O [quercitrin]
[2]; 12.5 ng/mL
  Working solution Accuracy (%): 101.0%

## COC(=O)C1=CO[C@@H](O[C@@H]2O[C@H](CO)[C@@H](O)[C@H](O)[C@H]2O)[C@H]2[C@@H]1C(=O)C[C@@H]2C [verbenalin]
[1]; 50 ng/mL
  Freeze thaw cycles Accuracy (%): 105.0%
  −80°C for 1month Accuracy (%): 105.0%
